Results as given in patent publication US20250382269A1 (CFD Research Corporation, priority 2019, published 2025).
≈ marks a conversion by molar mass, not a printed value.

System: HepG2 cells
Test: Cytotoxicity MTT assay in HepG2 liver cell line
Type: cell-based
Details: Homo sapiens
Experimental: Additionally, the antimicrobial compounds were analyzed for cytotoxicity. […] We utilized the standard MTT assay (Promega CellTiter 96) and GraphPad Prism 7 software to determine EC50 values for each analogue. Briefly, 20,000 HepG2 cells in 200 μl of the ATCC recommended media were seeded in each well of a 96-well plate with a moisture barrier created in the outermost wells. The cells were allowed to attach overnight at 37° C., and then observed under phase contrast microscopy for proper morphological characteristics. If cells appeared healthy and attached, test compounds were added in 7 concentrations from […] (n=3) from freshly prepared DMSO stock plates. […] Once incubations were complete, the spectrophotometric absorbance of the samples was measured at a wavelength of 595 nm. […] For the HepaRG assay, NoSpin HepaRG™ cells (Lonza, cat #NSHPRG) were thawed and plated with 20,000 cells per well. They were allowed to attach for 4 h (optimal DME profile per Lonza's testing) before dosing following the identical protocol as above.

SMILES: Cc1[nH]c2ccccc2c1Sc1ccc(Br)cc1 [Compound 172C, 3-((4-bromophenyl)thio)-2-methyl-1H-indole]
- EC50: 26.8 µg/mL (≈ 84.2 µM)
